# Measured affinities in a library of Ab-14 heavy chain variants

Antigen: PDVDLGDISGINAS, a 14-residue peptide of the SARS-CoV-2 spike HR2 region.

Parent: Ab-14, a human scFv built as VH, a 15-residue (Gly4Ser)3 linker, VL. Only the CDRs of the heavy chain vary.
VH: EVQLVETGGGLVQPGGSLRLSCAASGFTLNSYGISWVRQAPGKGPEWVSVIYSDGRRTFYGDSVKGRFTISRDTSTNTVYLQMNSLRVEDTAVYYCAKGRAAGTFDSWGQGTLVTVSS
VL: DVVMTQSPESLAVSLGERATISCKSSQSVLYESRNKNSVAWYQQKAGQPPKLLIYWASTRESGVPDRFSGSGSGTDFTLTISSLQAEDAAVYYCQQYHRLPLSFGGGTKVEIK

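The starting antibody came from a phage panning campaign against this peptide. Designed CDR sequences, proposed from the first random library and measured here. Group labels follow the data file (Ctrl: baseline library sampled from a position-specific scoring matrix, with some repeated check sequences; En: ensemble of fine-tuned language models; HC: hill climbing; Gen: genetic algorithm; Gibbs: Gibbs sampling; a sequence that several methods proposed may carry one label only). In AlphaSeq, yeast of one mating type display the scFv and yeast of the other type display the target. Binding brings cells together so that they mate, and sequencing counts the barcode pairs among the diploids. Each replicate has its own calibration line, from reference interactions of the BCL2 family. There are six technical replicates.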

Variants are written as CDR1, CDR2 and CDR3 of the heavy chain (limits as in the source). Parent: GFTLNSYGIS, VIYSDGRRTFYGDSVK, GRAAGTFDS.
Variants here have more than six changes.
Kd is apparent (estimated from mating counts) and averaged on the log scale over replicates with a signal. Smaller is tighter.
Where no diploid with the target was found in any replicate, the entry reads "no signal": below detection, most likely a poor binder, though not proof of it.

GFDLNEYGIS | VIYADGMRTAYADNVK | GSVAGTFDV [En_Gen]: 210 pM (6 of 6 replicates).
GFDLDEYGIS | VIYADGVRTAYTDSVK | GQNAGTFDV [En_Gen]: 170 pM (6 of 6 replicates).
GFNLNEYGIS | VIYADGMRTFYSDSVK | GENAGTFDV [En_HC]: 380 pM (6 of 6 replicates).
GFDVNEYGIS | VIYADGRRTQYVQDVK | GKNNMVLYV [En_Gibbs]: no signal (0 of 6 replicates).
GFEINMYGGS | VIYSDGIRTFYGDNVK | GRGAGTFDS [Ctrl]: no signal (0 of 6 replicates).
GFSLDEYGIS | VIYADGMRTAYTQSVK | GLMQQGRTM [En_Gibbs]: no signal (0 of 6 replicates).
GFDLDEYGIS | VIYADGMRTAYADSVK | GKNAGTFDL [En_Gen]: 270 pM (6 of 6 replicates).
GFDINEYGIS | VIYADGRRTAYADSVK | GEAAGTFDK [En_HC]: 910 pM (6 of 6 replicates).
GFDLNEYGIS | VIYADGRRTFYADSVK | GENAGTFLS [En_HC]: 1.5 nM (6 of 6 replicates).
GFDLNEYGIS | VIYADGVRTAYSDSVK | GTNAGTFDQ [En_Gen]: 740 pM (6 of 6 replicates).
GFDLNEYGIS | VIYADGQRTAYADSVK | GGNAGTFDV [En_Gen]: 1.1 nM (6 of 6 replicates).
GFNLDEYGIS | VIYADGRRTFYADSVK | GEVAGTFDV [En_HC]: 120 pM (6 of 6 replicates).
GFDLEEYGIS | VIYADGLRVFYADSVK | GGFDGYKFR [En_Gibbs]: no signal (0 of 6 replicates).
GFDLNEYGIS | VIYADGRRTQYIDSVK | GNVAGTFDI [En_HC]: 370 pM (5 of 6 replicates).
GFDLNEYGIS | VIYADGSRTAYADSVK | GNEAGTFDI [En_Gen]: 650 pM (6 of 6 replicates).
GFDINEYGIS | VIYADGVRTFYADSVK | GNQAGTFDL [En_HC]: 520 pM (4 of 6 replicates).
GDDLQEYGIS | VIYADGIRTAYGNKVK | GGQNGRITV [En_Gibbs]: no signal (0 of 6 replicates).
GFDLDEYGIS | VIYADGVRKAYADSVK | GEVAGTFDV [En_Gen]: 240 pM (6 of 6 replicates).
GFDLNEYGIS | VIYADGSRKFYADSVK | GNTAGTFDV [En_HC]: 1.2 nM (6 of 6 replicates).
GGNLDEYGIS | VIYADGKRRQYVDNVK | GSHADMFIM [En_Gibbs]: no signal (0 of 6 replicates).
GFTLDEYGIS | VIYADGRRTFYQDSVK | GNVAGTFDI [En_HC]: 470 pM (6 of 6 replicates).
GFDLNEYGIS | VIYADGMRKAYADDVK | GNNAGTFDQ [En_Gen]: 670 pM (6 of 6 replicates).
GFEIQEYGIS | VIYADGRRTAYAESVK | GTLGGTLST [En_Gibbs]: 9.8 nM (4 of 6 replicates).
GFDLNEYGIS | VIYADGKRTFYSDSVK | GQSAGTFDA [En_HC]: 750 pM (6 of 6 replicates).
GFELDEYGIS | VIYADGRRTFYSDSVK | GSTAGTFDV [En_HC]: 320 pM (6 of 6 replicates).
GESLEEYGIS | VIYADGMRNAYQSKVK | GTNSGDFTI [En_Gibbs]: no signal (0 of 6 replicates).
GFDLESYGIS | VIYADGRRTFYSDSVK | GSNAGTFDI [En_HC]: 320 pM (6 of 6 replicates).
GFDLNEYGIS | VIYADGRRTFYADSVK | GQTAGTFDL [En_HC]: 340 pM (6 of 6 replicates).
GFDLNEYGIS | VIYADGRRTFYADSVK | GQLAGTFSQ [En_HC]: 56 pM (6 of 6 replicates).
GFDLNEYGIS | VIYADGRRTAYVDSVK | GEVAGTFDV [En_Gen]: 620 pM (4 of 6 replicates).
GFDIEEYGIS | VIYADGIRTSYQNKVK | GRSGGIINV [En_Gibbs]: 3.3 µM (1 of 6 replicates).
GDVLDEYGIS | VIYADGQRTFYVQDVK | GGKAGSFSV [En_Gibbs]: no signal (0 of 6 replicates).
GFDLQEYGIS | VIYADGLREAYSEKVK | GQLMGYFSF [En_Gibbs]: no signal (0 of 6 replicates).
GFDLNEYGIS | VIYADGRRTFYTDSVK | GTNGGTFDV [En_HC]: 300 pM (6 of 6 replicates).
GYDINEYGVS | VIYADGKRNAYANSVK | GKWAGAFVD [En_Gibbs]: 330 nM (1 of 6 replicates).
GDSLDEYGIS | VIYADGQRVQYVDPVK | GIQAGNVDV [En_Gibbs]: no signal (0 of 6 replicates).
GFDLAEYGIS | VIYADGMRVSYDQNVK | GHGGGSFNF [En_Gibbs]: 39 nM (6 of 6 replicates).
GFDLNEYGIS | VIYADGMRTAYQDSVK | GNTAGTFDV [En_Gen]: 210 pM (6 of 6 replicates).
GFDLDEYGIS | VIYADGIRQYYVDNVK | GLLAGMTIT [En_Gibbs]: 16 µM (1 of 6 replicates).
GFDLNEYGIS | VIYADGRRTFYSDSVK | GGNAGTFDI [En_HC]: 240 pM (6 of 6 replicates).
GFDLNEYGIS | VIYADGRRTQYIDSVK | GEGAGTFDT [En_HC]: 1.7 nM (6 of 6 replicates).
GFDLNEYGIS | VIYADGSRTAYADSVK | GNQAGTFDL [En_Gen]: 420 pM (6 of 6 replicates).
GFDLNEYGIS | VIYADGLRTKYSNAVK | GGLQAHFKL [En_Gibbs]: 190 nM (1 of 6 replicates).

The opening 5 entries, copied out:

For GFDLNEYGIS | VIYADGMRTAYADNVK | GSVAGTFDV [En_Gen], the assay gave 210 pM (6 of 6 replicates).
For GFDLDEYGIS | VIYADGVRTAYTDSVK | GQNAGTFDV [En_Gen], the assay gave 170 pM (6 of 6 replicates).
For GFNLNEYGIS | VIYADGMRTFYSDSVK | GENAGTFDV [En_HC], the assay gave 380 pM (6 of 6 replicates).
For GFDVNEYGIS | VIYADGRRTQYVQDVK | GKNNMVLYV [En_Gibbs], the assay gave no signal (0 of 6 replicates).
For GFEINMYGGS | VIYSDGIRTFYGDNVK | GRGAGTFDS [Ctrl], the assay gave no signal (0 of 6 replicates).

The parent sequence was in this pool as ten entries: three were never detected, three once, and four in most replicates, with averages from 2.2 nM to 240 nM.
Values of this round are not directly comparable with the first-round values of the same sequences.
Nonspecific signal, from three strains lacking the peptide, appeared in 1% of pairings of all heavy chain designs, centred on 120 nM (5% of these signals below 7.0 nM); values are not corrected for it.
The authors averaged sequences with at least three values out of six and counted those with two or fewer as poor binders.

From the AlphaSeq antibody data of Li et al. 2023 (doi:10.1038/s41467-023-39022-2), copy in the FLAb collection.